Reference: patent publication EP4843994A1, “NOVEL PEPTIDE HAVING MUSCLE FORMATION-PROMOTING ACTIVITY, ANTI-OBESITY ACTIVITY AND ANTI-DIABETIC ACTIVITY AND USES THEREOF” (dated 2026)

Experiments:
[1] = test system: HepG2 cells; assay: Expression of fatty acid oxidation-related proteins in hepatocytes (Western blot); settings: 500 µM oleic acid, peptide 5 µM, 50 µM, 48 hours
Procedure: HepG2 cells (human-derived hepatocytes) were cultured in DMEM medium containing 1% P/S and 10% FBS. When cell confluency reached approximately 70 to 80%, cells were seeded into a 12-well culture plate at a concentration of 2 x 10^5 cells/ml. Subsequently, when cell confluency in the 12-well culture plate reached approximately 70 to 80%, the medium was replaced with serum-free DMEM medium. After 4 hours, lipid accumulation was induced by replacing the solution with serum-free DMEM (1% BSA) supplemented with 500 µM oleic acid (Sigma, St. Louis, MO, USA). After inducing lipid accumulation for 24 hours, the solution was replaced with serum-free DMEM (1% BSA) supplemented with 500 µM oleic acid (Sigma, St. Louis, MO, USA) and peptides (5 µM, 50 µM), and cultured for 48 hours. After culture, lysis buffer was added to lyse the cells, and the cell lysate was centrifuged at 4°C at 12,000 rpm for 30 minutes to obtain the protein. The obtained protein was quantified using a BCA kit. The protein was electrotransferred onto a membrane after performing SDS-PAGE (sodium dodecyl sulfate-polyacrylamide gel electrophoresis). After blocking the protein-attached membrane with 5% skim milk, the membrane was treated with the primary antibody and incubated overnight at 4°C. […]

[2] = test system: 3T3-L1 cells; assay: Expression of adipogenesis-related genes in adipocytes (RT-PCR); settings: 3T3-L1 cells differentiated into adipocytes, peptide 5 µM, 50 µM, 48 hours
Procedure: 3T3-L1 cells (preadipocytes, American Type Culture Collection) were cultured in DMEM medium containing 2% BCS (Bovine Calf Serum) (Welgene, Korea). To differentiate 3T3-L1 cells into adipocytes, cells were seeded into 12-well culture plates at a concentration of 1 x 10^5 cells/well, and when the cells became confluent (Day=2), the medium was replaced once more and cultured for an additional 48 hours. After 48 hours (Day=0), the culture medium was replaced with DMEM medium containing 10% FBS, 1% P/S, 1 µg/ml insulin (Sigma, USA), 0.5 mM isobutylmethylxanthine (IBMX) (Sigma, USA), and 1 µM Dexamethasone (Sigma, USA), and cultured. After 2 days (Day=2), the medium was replaced with DMEM medium containing 10% FBS, 1% P/S, and 1 µg/ml insulin, and cultured. After 3 days (Day=5), the medium was replaced with one containing only 10% FBS and 1% P/S, treated with peptides (5 µM, 50 µM), and cultured for 48 hours. After culture, cells were harvested and RNA was extracted using Trizol (Thermo Fisher Scientific, USA). DNA complementary to the extracted RNA was synthesized using TOPScript™ RT DryMIX (enzynomics, Korea), and then polymerase chain reaction (PCR) was performed on genes of adipogenesis-related markers using TOPsimple™ DryMIX-nTaq (enzynomics, Korea). Subsequently, the reaction products were run on a 1.5% agarose gel to compare the mRNA expression levels of the markers for each sample. […]

[3] = test system: 3T3-L1 cells; assay: Expression of fatty acid oxidation-related genes in insulin resistance-induced adipocytes (RT-PCR); settings: 3T3-L1 adipocytes, 350 µM oleic acid (insulin resistance environment), peptide 5 µM, 50 µM, 48 hours
Procedure: 3T3-L1 cells (preadipocytes, American Type Culture Collection) were cultured in DMEM medium containing 2% BCS (Bovine Calf Serum) (Welgene, Korea). To differentiate 3T3-L1 cells into adipocytes, cells were seeded into 12-well culture plates at a concentration of 1 x 10^5 cells/well, and when the cells became confluent (Day=2), the medium was replaced once more and cultured for an additional 48 hours. After 48 hours (Day=0), the culture medium was replaced with DMEM medium containing 10% FBS, 1% P/S, 1 µg/ml insulin (Sigma, USA), 0.5 mM isobutylmethylxanthine (IBMX) (Sigma, USA), and 1 µM Dexamethasone (Sigma, USA), and cultured. After 2 days (Day=2), the medium was replaced with DMEM medium containing 10% FBS, 1% P/S, and 1 µg/ml insulin, and cultured. After 3 days (Day=5), the medium was replaced with one containing only 10% FBS and 1% P/S, and an insulin resistance environment was induced by treating with 350 µM oleic acid (Sigma, St. Louis, MO, USA) for 24 hours. After 24 hours of induction, the DMEM medium (10% FBS, 1% BSA) supplemented with 350 µM oleic acid (Sigma, St. Louis, MO, USA) and peptides (5 µM, 50 µM) was replaced, and the cells were cultured for 48 hours. After culture, the cells were harvested, and RNA was extracted using Trizol (Thermo Fisher Scientific, USA). […]

C[C@@H](O)[C@H](NC(=O)CNC(=O)[C@@H](N)Cc1c[nH]cn1)C(=O)N[C@@H](Cc1ccc(O)cc1)C(=O)O
increased again: expression level of CPT1 protein [1] | expression level of PGC1α protein [1] | expression of CPT1 (gene) [3] | expression of PGC1α (gene) [3]
reduced: expression of ACCα (gene) [2] | expression of PPAR-γ (gene) [2]
